Drawing on patent publication US20240239801A1, “PYRIMIDO[5,4,D]PYRIMIDINE COMPOUNDS, COMPOSITIONS COMPRISING THEM AND USES THEREOF” (Université de Montréal, priority 2021, published 2024), this text covers IC50 and EC50 for two molecules.

By UniProt entry, the sequences of proteins in these tests, tags left out.
UniProt P15056, whole entry: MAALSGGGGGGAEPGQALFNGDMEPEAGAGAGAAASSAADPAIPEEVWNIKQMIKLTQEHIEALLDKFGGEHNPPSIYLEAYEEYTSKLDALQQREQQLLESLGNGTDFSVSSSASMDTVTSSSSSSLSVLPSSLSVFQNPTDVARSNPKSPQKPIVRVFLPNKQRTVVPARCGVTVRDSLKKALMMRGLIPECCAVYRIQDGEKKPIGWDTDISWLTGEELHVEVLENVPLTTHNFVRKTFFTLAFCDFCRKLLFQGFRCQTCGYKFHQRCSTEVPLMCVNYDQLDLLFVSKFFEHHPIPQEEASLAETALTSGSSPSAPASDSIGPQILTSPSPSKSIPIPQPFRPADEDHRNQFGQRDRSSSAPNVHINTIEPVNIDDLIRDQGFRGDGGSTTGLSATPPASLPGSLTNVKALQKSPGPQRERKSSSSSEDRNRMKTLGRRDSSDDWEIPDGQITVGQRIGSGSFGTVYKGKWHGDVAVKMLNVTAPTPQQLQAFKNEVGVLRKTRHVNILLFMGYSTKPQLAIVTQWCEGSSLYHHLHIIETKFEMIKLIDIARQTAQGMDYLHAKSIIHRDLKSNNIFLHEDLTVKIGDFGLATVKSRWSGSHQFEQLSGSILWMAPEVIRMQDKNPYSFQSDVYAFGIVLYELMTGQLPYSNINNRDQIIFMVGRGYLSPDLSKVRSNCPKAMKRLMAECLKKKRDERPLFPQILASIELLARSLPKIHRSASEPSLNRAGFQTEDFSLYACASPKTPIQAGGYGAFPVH

The target in test [1] is BRAF (Homo sapiens, UniProt P15056). Kind of test: BRAF kinase activity assay (ADP-Glo). To be noted: read-out: Kinase IC50 BRAF; Table 3. As for the experimental part: Compound preparation: solid samples of each substances in 1dram vials were suspended in DMSO (Fisher Scientific) at a stock concentration of 20 mM. Stocks were kept at −20° C. and protected from light. If solubility of the compound at 20 mM appeared to be an issue, the initial concentration of the DMSO stock was changed to 10 mM or 5 mM.
In vitro enzymatic reactions were used for evaluating compounds intrinsic activity against BRAF, CRAF and ARAF. For BRAF and CRAF, 0.375 nM of purified GST-tagged kinases (cat #B4062-10UG and cat #R1656-10UG respectively from Millipore Sigma) were incubated with 75 nM of kinase-dead MEK1 substrate (cat #40075; BPS Bioscience) in the presence of 10 μM of Ultrapure ATP (cat #V9102; Promega; part V915A) with and without the test compound in a buffer containing 50 mM HEPES pH 7.5, 10 mM MgCl2, 1 mM EDTA, 0.01% Brij-35 and 2 mM DTT. Separate reactions were performed with the MEK1 substrate and ATP as a blank control. ARAF, kinase reactions were rigorously the same with the exception that kinase concentration was raised to 3.75 nM (cat #1768-0000-1; Reaction Biology).
For compound treatment, 5 μL/well of test substance solution are placed in a 384-well proxyplate (Perkin Elmer) and mixed with 2× concentrated kinase reactions. The dilution series is selected so that nine concentrations cover a range from 100 nM to 0.01 nM. […] The final concentration of DMSO in the assay is set at 0.05%.
BRAF and CRAF kinase reactions were carried out for a total of 2 hours at 30° C. and then stopped by ½ dilution in ADP-Glo Reagent (cat #V9102; Promega; part V912C). Reactions were then incubated for 1 h at room temperature before addition of one volume of Kinase Detection Reagent (cat #V9102; Promega; part V917A). Plates were then equilibrated at room temperature for 30 minutes before detection of luminescence on a Synergy Neo2 plate reader (Biotek). The effect of each compound dilution on BRAF and CRAF kinase activity was expressed as % inhibition and calculated as follows. First, the internal 100% inhibition control (average of luminescence in kinase reactions comprising kinase dead MEK1 substrate alone) was subtracted from each data point. The average of DMSO (vehicle) controls (set as 0% inhibition) was established and used to calculate % inhibition:
IC50 values were obtained by plotting the kinase inhibition values and fitting the dose-activity curves using a log(agonist) versus response−variable slope (four parameters) function using either GraphPadPrism (V7.0) or Dotmatics Screening Ultra platform. Standards included in the ARAF kinase assay were Belvarafenib (MedChem Express cat #HY-109080; CAS #1446113-23-0), LXH254 (MedChem Express cat #HY-112089; CAS #1800398-38-2) and BGB283 (cat #HY-18957; CAS #1446090-79-4).
On the technique in general: ADP-Glo turns the ADP formed in a reaction into a luminescent signal.

The subject of test [2] is IPC298. Kind of test: Proliferation inhibition, CellTiter-Glo. The settings on record: read-out: IPC298 Prolif. EC50; Table D-1; 3 days. As for the experimental part: (§1) All cancer cell lines (A375, A101D, A2058, RKO, HT29 SK-MEL 30, IPC298, HepG2, HCT-116, Lovo, SW620, SW480, NCI-H358, NCI-H2122, Calu-6, NCIH2087, NCIH1755, NCIH1666 and Mewo) were obtained from ATCC and cultured in RPMI-1640 medium (Gibco) supplemented with 5% heat inactivated fetal bovine serum (FBS, Wisent) at 37° C. under 5% CO2. Cells were maintained in T175 flasks (Greiner). They were passaged by removing the culture medium, washing once in 10 mL of room temperature Phosphate Buffered Saline (PBS; Wisent) and incubating at 37° C. with 2 mL of 0.05% Trypsin (Thermo-Fisher). Trypsin was then inactivated by adding complete growth medium and the cells were then replated in a T175 culture dish at the appropriate dilution. All cell lines were routinely tested for mycoplasma contamination. Tissue type and mutational status of each cell line can be found in Table B.
(§2) CellTiter-Glo® viability analysis was conducted on cells plated in […] of complete RPMI-1640 growth medium in 96-well flat-bottomed white opaque plates (Greiner or Corning) at a density indicated in Table E (for each CCL, number of cells plated per well of a 96-well plate to perform the CellTiter-Glo® cell viability assay). The cell density in cells/cm^2 would correspond to cell number divided by the area of one well of a 96-well plate (0.32 cm^2). Cells were maintained overnight at 37° C. under 5% CO2 before treatment with compounds' dilution series for 3 days.
(§3) In a dilution series 100 μL/well of test substance dilution prepared in complete RPMI-1640 growth media was added to the cells plated initially in 100 μL of growth media. The dilution series is selected so that ten concentrations cover a range from 30 μM or 10 μM to […]. If necessary (as in the case of A375 cells, which were more sensitive to the compounds) the initial concentration of 10 μM is lowered to 1 μM and further dilution is carried out accordingly. The final concentration of DMSO in the assay is set to 0.5%.
(§4) After 3 days of incubation, the growth media were removed by aspiration and 60 μL of diluted CellTiter-Glo® reagent (10 μL CellTiter-Glo® reagent+50 μL of PBS) was added to each well. Cells were allowed to lyse and to equilibrate in CellTiter-Glo® reagent by 5 min incubation on a plate shaker followed by 10 min incubation at room temperature. Luminescence signals were then acquired on a Synergy Neo2 plate reader (Biotek).
(§5) The effect of each compound dilution on the proliferation of cancer cell lines was expressed in % inhibition and calculated as follows. An internal 100% inhibition control (1 μM of trametinib; cat. No. HY-10999; MedChem Express; CAS No. 871700-17-3) was included in each plate and used as a measure of CellTiter-Glo® signal background. The value obtained for trametinib was subtracted from each data point. The average of DMSO (vehicle) controls (set as 0% inhibition) was established and used to calculate % inhibition:
(§6) The ability of each compound to inhibit proliferation was expressed as a EC50 value obtained by plotting the effect values for each data point of a dilution series and fitting the obtained curves using a log(agonist) versus response−variable slope (four parameters) function using GraphPadPrism (V7.0) or Dotmatics Screening Ultra platform.
Background: In ATP-based viability assays light output follows the ATP content of the culture.

In test [3] the test system is NCIH2087. Kind of test: Proliferation inhibition, CellTiter-Glo. To be noted: read-out: NCIH2087 Prolif. EC50; Table D-2; 3 days. As for the experimental part: as §1, §2, §3, §4, §5, §6
Test [4] concerns NCI-H358. Kind of test: Proliferation inhibition, CellTiter-Glo. To be noted: read-out: NCI-H358 Prolif. EC50; Table D-2; 3 days. The procedure: as §1, §2, §3, §4, §5, §6
Test [5] concerns SW620. The experiment in a line: Proliferation inhibition, CellTiter-Glo. To be noted: read-out: SW620 Prolif. EC50; Table D-2; 3 days. As for the experimental part:
as §1, §2, §3, §4, §5, §6

Test [6] deals with NCIH1755. Kind of test: Proliferation inhibition, CellTiter-Glo. To be noted: read-out: NCIH1755 Prolif. EC50; Table D-2; 3 days. The procedure: as §1, §2, §3, §4, §5, §6

SMILES strings stand for the structures.

The term IC50 denotes the point on the concentration scale where inhibition reaches its midpoint. Take `COc1ccc(S(=O)(=O)Nc2ccc(F)c(Nc3ncnc4cnc(-n5cc(S(=O)(=O)N(C)CCN(C)C)c6ccccc65)nc34)c2F)c(C)c1Cl`: the IC50 in test [1] is less than 1 nM.
One may read the EC50 as the midpoint of the concentration-response curve. Take `O=S(=O)(Nc1ccc(F)c(Nc2ncnc3cnc(-n4cnc5c(N6CCC(O)(C(F)(F)F)CC6)cccc54)nc23)c1F)c1cccc(Cl)c1Cl`: the half-maximal effective concentration (EC50) in test [2], in test [3], in test [4], in test [5] and in test [6] was less than 300 nM in each case. Also, the IC50 in test [1] is more than 10 nM.
